Where two headings read alike, the source gives them in different places.

What all share (test): cell-based or functional assay
Experiment [1] deals with plant expressed recombinant human DNase I (prh DNase I) (human) (UniProt P24855).
The target of experiment [2] is Pulmozyme (dornase alfa), recombinant human DNase I expressed in CHO cells (human) (UniProt P24855).
Experiment [3] has as its target plant expressed recombinant human DNase I (prh DNase I) (human) (UniProt P24855). The source holds these as a separate data set.
Experiment [4] has as its target Pulmozyme (dornase alfa), recombinant human DNase I expressed in CHO cells (human) (UniProt P24855). The source holds these as a separate data set.

With “human non-muscle actin (Cytoskeleton; cat No. APHL99), G-actin (from UniProt P60709 2-375)”, the IC50 (µg/ml) of human G-actin for inhibition of DNase I catalytic activity, Methyl Green assay; Prh DNase I in experiment [1] amounted to 1.82 µg/mL. Also, in experiment [2], the IC50 (µg/ml) of human G-actin for inhibition of DNase I catalytic activity, Methyl Green assay; Pulmozyme came out at 0.687 µg/mL. For the same substance, in experiment [3], the IC50 (µg/ml) of human G-actin for inhibition of DNase I catalytic activity, Methyl Green assay; Prh DNase I batch 1 came to 1.71 µg/mL and the IC50 (µg/ml) of human G-actin for inhibition of DNase I catalytic activity, Methyl Green assay; Prh DNase I batch 2 turned out to be 1.85 µg/mL. In addition, the IC50 (µg/ml) of human G-actin for inhibition of DNase I catalytic activity, Methyl Green assay; Pulmozyme in experiment [4] amounted to 0.546 µg/mL.

Values taken from patent US20150010527A1.
